Test results published in patent US20160031996A1 (CSL, published 2016).

Target: T1, full length human IL-3Rα, wild type (human, UniProt P26951 19-378)
T1 construct: expressed in 293F cells; also called WT
T1 sequence: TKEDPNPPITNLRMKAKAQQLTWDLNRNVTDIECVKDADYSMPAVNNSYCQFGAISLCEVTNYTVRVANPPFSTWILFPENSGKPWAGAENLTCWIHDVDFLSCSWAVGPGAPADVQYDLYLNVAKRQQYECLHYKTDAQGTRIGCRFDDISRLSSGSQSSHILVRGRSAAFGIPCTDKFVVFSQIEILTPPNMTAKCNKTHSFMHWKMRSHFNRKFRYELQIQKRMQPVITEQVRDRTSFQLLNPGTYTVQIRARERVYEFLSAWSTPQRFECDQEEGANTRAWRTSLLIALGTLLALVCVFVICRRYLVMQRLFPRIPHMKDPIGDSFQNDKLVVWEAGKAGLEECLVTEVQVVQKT
Experiment: flow cytometry, MFI normalised to WT (reference, set as 100%)

MFI as percent of WT staining: 100 % of WT MFI
B1: antibody CSL362 (antibody, V domains shown)
VH: EVQLVQSGAEVKKPGESLKISCKGSGYSFTDYYMKWARQMPGKGLEWMGDIIPSNGATFYNQKFKGQVTISADKSISTTYLQWSSLKASDTAMYYCARSHLLRASWFAYWGQGTMVTVSS
VL: DIVMTQSPDSLAVSLGERATINCESSQSLLNSGNQKNYLTWYQQKPGQPPKPLIYWASTRESGVPDRFSGSGSGTDFTLTISSLQAEDVAVYYCQNDYSYPYTFGQGTKLEIKR
